Publication PMC5961032

Target: PPP1R15A^325–636-MBP (human) (UniProt O75807)

EC50 of the stimulation of eIF2α^P (2 μM) dephosphorylation by PP1^N (20 nM) and PPP1R15A^325–636-MBP (50 nM), G-actin 1–2000 nM, 30 min at 30 °C: 30 nM
Substance: G-actin (from UniProt P68135 1-377) (natural protein)
